Assay [1] addresses T1, kinase enzymes (Homo sapiens, UniProt P42336).
T1 construct: purchased DiscoveRx Corporation, San Diego (contract service, KINOMEscan)
Kind of assay: Enzyme binding assay (KINOMEscan, DiscoveRx), further kinases of Table A. Conditions: Kd PIK3Cα_h, PIK3Cα_h. The method, then: (§1) Enzyme Binding Assays (KINOMEscan®)
(§2) Kinase enzyme binding affinities of compounds disclosed herein were determined using the KINOMEscan technology performed by DiscoveRx Corporation, San Diego, Calif., USA (www.kinomescan.com). Table A reports the obtained Kd values (nM), with the Kd being the inhibitor binding constant: […]

Assay [2] deals with T2, kinase enzymes (Homo sapiens, UniProt P42345).
T2 construct: purchased DiscoveRx Corporation, San Diego (contract service, KINOMEscan)
The assay is described as above. Particulars: Kd MTOR_h, MTOR_h. The method, then:
as §1, §2

Assay [3] has as its target T3, kinase enzymes (Homo sapiens, UniProt P48736).
T3 construct: purchased DiscoveRx Corporation, San Diego (contract service, KINOMEscan)
The description is as above. Conditions: Kd PIK3Cγ_h, PIK3Cγ_h. The protocol: as §1, §2

A further assay addresses T4, PI3Kδ (Homo sapiens, UniProt O00329).
T4 construct: purchased DiscoveRx Corporation, San Diego (contract service, KINOMEscan)
T4 sequence (O00329 1-1044): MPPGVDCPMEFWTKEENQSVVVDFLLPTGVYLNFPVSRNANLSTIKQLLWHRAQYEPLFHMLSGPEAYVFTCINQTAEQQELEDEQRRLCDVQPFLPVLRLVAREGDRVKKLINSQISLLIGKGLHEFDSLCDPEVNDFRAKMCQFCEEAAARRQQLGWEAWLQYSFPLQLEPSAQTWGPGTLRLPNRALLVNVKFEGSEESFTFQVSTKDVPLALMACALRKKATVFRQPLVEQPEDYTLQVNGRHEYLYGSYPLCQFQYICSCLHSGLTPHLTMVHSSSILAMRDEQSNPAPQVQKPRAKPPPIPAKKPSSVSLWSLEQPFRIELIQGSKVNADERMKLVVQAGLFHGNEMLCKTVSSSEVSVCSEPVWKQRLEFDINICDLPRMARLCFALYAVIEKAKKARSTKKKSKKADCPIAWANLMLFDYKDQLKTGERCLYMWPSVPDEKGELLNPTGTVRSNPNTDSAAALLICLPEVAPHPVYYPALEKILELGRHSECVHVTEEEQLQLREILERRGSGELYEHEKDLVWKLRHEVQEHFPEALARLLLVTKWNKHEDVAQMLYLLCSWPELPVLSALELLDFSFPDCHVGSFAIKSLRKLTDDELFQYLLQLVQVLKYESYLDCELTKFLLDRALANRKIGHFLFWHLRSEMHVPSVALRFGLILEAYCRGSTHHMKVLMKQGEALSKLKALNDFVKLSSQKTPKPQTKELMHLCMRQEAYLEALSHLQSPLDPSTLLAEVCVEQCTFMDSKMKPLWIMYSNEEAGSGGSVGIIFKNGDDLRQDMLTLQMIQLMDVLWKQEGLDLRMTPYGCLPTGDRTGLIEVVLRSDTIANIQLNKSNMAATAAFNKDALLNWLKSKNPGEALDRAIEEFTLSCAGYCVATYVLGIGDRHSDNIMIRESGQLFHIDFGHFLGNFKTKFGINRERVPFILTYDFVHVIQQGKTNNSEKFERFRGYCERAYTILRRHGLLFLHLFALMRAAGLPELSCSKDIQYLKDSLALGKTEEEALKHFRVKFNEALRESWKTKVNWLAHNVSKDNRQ
Kind of assay: Enzyme binding assay (KINOMEscan, DiscoveRx). The protocol: as §1
Kinase enzyme binding affinities of compounds disclosed herein were determined using the KINOMEscan technology performed by DiscoveRx Corporation, San Diego, Calif., USA (www.kinomescan.com).

[4] abbreviates: PIK3Cδ_h, read-out: Kd PIK3Cδ_h.

Like-named read-outs stand apart in the source and are kept apart here.

What is called Kd is the concentration at which binding is half-saturated. `CNCCN(C)C(=O)c1cc(C2CCCN2c2cc(F)cc(F)c2)c2nc(N3CCOCC3)cnc2c1` (stereo not drawn) [Compound 18]: the Kd came to 5 nM on kinase enzymes [1], 21900 nM on kinase enzymes [2] and 37 nM on kinase enzymes [3].
For `CC(Nc1cc(F)cc(F)c1)c1cc(C(=O)NCCN(C)C)cc2ncc(N3CCOCC3)nc12` (stereo not drawn) [Compound 183], the Kd at PI3Kδ (setting [4]) is 102 nM.
The same measure, in the same setting: next, `C[C@@H](Nc1cc(F)cc(F)c1)c1cc(C(=O)NCCN(C)C)cc2ncc(N3CCOCC3)nc12` [Compound 184]: 57 nM.
On to `C[C@@H](Nc1cc(F)cc(F)c1)c1cc(C(=O)NCCN(C)C)cc2ncc(N3CCOCC3)nc12` [Compound 184a], for which, at PI3Kδ (Kd PIK3Cδ_h), binding was put at a Kd of 74 nM.
`C[C@@H](Nc1cc(F)cc(F)c1)c1cc(C(=O)NCCN(C)C)cc2ncc(N3CCOCC3)nc12` [Compound 184b] returned a Kd at PI3Kδ (Kd PIK3Cδ_h) of 66 nM.
On the same count and under the same terms, the value for `C[C@@H](Nc1cc(F)cc(F)c1)c1cc(C(=O)NCCN(C)C)cc2ncc(N3CCOCC3)nc12` [Compound 184c] was 54 nM.
On to `C[C@H](Nc1cc(F)cc(F)c1)c1cc(C(=O)NCCN(C)C)cc2ncc(N3CCOCC3)nc12` [Compound 185], for which the Kd at PI3Kδ (setting [4]) is 5370 nM.

The values above are taken from patent US10526316B2, “Quinoxaline and pyridopyrazine derivatives as PI3Kβ inhibitors” (Janssen Pharmaceutica NV, priority 2015, dated 2020).
